The values that follow come from ChEMBL document CHEMBL3632621, “Conformationally restricted κ-opioid receptor agonists: Synthesis and pharmacological evaluation of diastereoisomeric and enantiomeric decahydroquinoxalines” (Bioorg Med Chem Lett, 2015).

Sequences of proteins named here, by UniProt entry; tags and fusion partners are left off.
UniProt P33533, whole entry, looked up: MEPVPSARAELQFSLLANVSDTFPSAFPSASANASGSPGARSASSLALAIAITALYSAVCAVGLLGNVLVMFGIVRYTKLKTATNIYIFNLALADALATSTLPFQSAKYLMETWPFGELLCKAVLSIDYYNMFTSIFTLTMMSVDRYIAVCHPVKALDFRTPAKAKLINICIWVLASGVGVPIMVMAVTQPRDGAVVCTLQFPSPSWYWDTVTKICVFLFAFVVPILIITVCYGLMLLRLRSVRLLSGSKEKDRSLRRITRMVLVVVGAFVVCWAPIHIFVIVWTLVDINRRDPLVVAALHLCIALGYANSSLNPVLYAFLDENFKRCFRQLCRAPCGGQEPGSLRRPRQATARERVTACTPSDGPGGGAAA
UniProt P97266, whole entry, looked up: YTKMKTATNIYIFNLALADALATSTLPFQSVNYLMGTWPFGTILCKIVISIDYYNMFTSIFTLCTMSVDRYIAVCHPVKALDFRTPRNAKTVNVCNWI

For test [1], the target named is Delta-type opioid receptor (Rattus norvegicus) (UniProt P33533). Briefly: Displacement of [3H]-DPDPE from delta opioid receptor in rat brain membrane at 10 uM after 120 mins by scintillation counting.
Test [2] has as its target Mu-type opioid receptor (Cavia porcellus) (UniProt P97266). The test is described as follows: Displacement of [3H]-DAMGO from mu opioid receptor in guinea pig brain membrane at 10 uM after 120 mins by scintillation counting. A general note: Displacement assays read how much labelled ligand stays bound in the presence of the test substance.
Test [3] has the same target. Briefly: Displacement of [3H]-DAMGO from mu opioid receptor in guinea pig brain membrane at 1000 nM after 120 mins by scintillation counting.
In test [4] the target is Delta-type opioid receptor (Rattus norvegicus) (UniProt P33533). Briefly: Displacement of [3H]-DPDPE from delta opioid receptor in rat brain membrane at 1000 nM after 120 mins by scintillation counting.

The inhibition is how much of the control response was suppressed. Regarding `COC(=O)N1CCN(C(=O)Cc2ccc(Cl)c(Cl)c2)[C@H]2[C@H]1CCC[C@@H]2N1CCCC1`, the inhibition was 28% in test [1], 6% in test [2] and 1% in test [3].

In the case of `COC(=O)N1CCN(C(=O)Cc2ccc(Cl)c(Cl)c2)[C@@H]2[C@H]1CCC[C@@H]2N1CCCC1`, the figures for the inhibition in test [4] and in test [3] were 24% and 29%, respectively.
